Test: Plasma concentrations and pharmacokinetics of MOD-6031 and its hydrolyzed products by LC-MS/MS
Type: in vivo, ob/ob mice
Conditions: for Plasma concentration 24 hours following single dose (Day 2) / Plasma concentration 24 hours following last injection of repeat dosing (Day 33): b334 gives μg/ml

## Oxyntomodulin [OXM]
MOD-6031 1000 nmol/kg (PEG-FMS dose incl. impurities 1515)
  Plasma concentration 24 hours following single dose (Day 2): 0.07
MOD-6031 1000 nmol/kg twice a week (PEG-FMS 1515)
  Plasma concentration 24 hours following last injection of repeat dosing (Day 33): 0.09
MOD-6031 3000 nmol/kg (PEG-FMS dose incl. impurities 4545)
  Plasma concentration 24 hours following single dose (Day 2): 0.23
MOD-6031 3000 nmol/kg twice a week (PEG-FMS 4545)
  Plasma concentration 24 hours following last injection of repeat dosing (Day 33): 0.23
MOD-6031 6000 nmol/kg (PEG-FMS dose incl. impurities 9090)
  Plasma concentration 24 hours following single dose (Day 2): 0.38
MOD-6031 6000 nmol/kg twice a week (PEG-FMS 9090)
  Plasma concentration 24 hours following last injection of repeat dosing (Day 33): 0.37
Top dose of MOD-6031 (6000 nmol/kg) twice a week, terminal blood
  actual concentration at 24 h post last injection (Day 33): 0.37 µg/mL
